Antibody variant affinities, Ab-14 heavy chain, assay B

Target peptide (SARS-CoV-2 spike, HR2 region): PDVDLGDISGINAS

Parent: Ab-14, a human scFv built as VH, the linker GGGGSGGGGSGGGGS, VL. Only the CDRs of the heavy chain vary.
VH: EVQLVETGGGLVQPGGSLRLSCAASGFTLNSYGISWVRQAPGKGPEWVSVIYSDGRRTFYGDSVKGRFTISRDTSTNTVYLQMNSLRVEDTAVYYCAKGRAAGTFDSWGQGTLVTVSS
VL: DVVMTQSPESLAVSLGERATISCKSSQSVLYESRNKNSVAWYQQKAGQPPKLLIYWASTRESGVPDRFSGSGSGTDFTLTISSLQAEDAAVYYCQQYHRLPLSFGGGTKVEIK

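Phage display of a naive human antibody library on the peptide gave the parent. Designed CDR sequences, proposed from the first random library and measured here. Several design methods are mixed in this list. Affinity was read by AlphaSeq, a pooled yeast mating assay with surface-displayed partners. After mating in shaken culture at 30 °C for 16 h, diploids were selected and their barcode pairs sequenced. Read counts were normalised to the haploid input and turned into Kd by a linear fit to BCL2-family pairs of known affinity, for each replicate. The assay was run in six technical replicates.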

Substitutions are numbered in sequence along the VH above, starting at 1 (not Kabat). Variants here have at most six changes. The Kd shown is the geometric mean over detected replicates; a lower Kd is a better binder. A pair that was not seen in any replicate is written "nd"; this usually means weak binding, but a binder can also be missed.

Variant T28D+R56E+T58E+K65V+R100V showed 94 nM (4 of 6 replicates; controls 1 of 18). Variant T28E+R100V+A101N+S107T showed 1.3 nM (6 of 6 replicates; controls 0 of 18). Variant T28G+R56K showed nd (0 of 6 replicates; controls 0 of 18). Variant T28E+R100V+A101T+S107K showed 9.7 nM (6 of 6 replicates; controls 0 of 18). Variant S31E+G99C+G103V+S107Q gave nd (0 of 6 replicates; controls 0 of 18). Variant T28S+G61S+S63M+R100E showed 31 nM (6 of 6 replicates; controls 0 of 18). Variant T28N+R100T+A101Q showed nd (0 of 6 replicates; controls 0 of 18).

Variant T28S+S31Q+S53A gave 5.2 nM (6 of 6 replicates; controls 0 of 18). With G61S+A101E+D106K the result was 58 nM (3 of 6 replicates; controls 1 of 18). For L29N+S31E+F59A+G61I, the assay gave 59 nM (6 of 6 replicates; controls 0 of 18). Variant S31D+R56E+F59Q+G61I+A102S showed 660 nM (1 of 6 replicates; controls 0 of 18). Variant T28L+S31D+G61K+R100N showed 4.5 nM (5 of 6 replicates; controls 0 of 18). Variant T28S+S31D+R56F+S107L gave 1.9 nM (6 of 6 replicates; controls 1 of 18). For T28E+S53A+G61V, the assay gave 700 pM (6 of 6 replicates; controls 0 of 18).

For F59M+R100S, the assay gave nd (0 of 6 replicates; controls 0 of 18). With G61A+R100D the result was nd (0 of 6 replicates; controls 0 of 18). Variant S31D+G103L+F105V+D106I+S107E gave 20 nM (5 of 6 replicates; controls 0 of 18). Variant F27Y+S31E+G103V+S107K showed 170 nM (1 of 6 replicates; controls 1 of 18). Variant T28P+N30D+G61S+K65E+R100N+A101L showed 2.7 nM (6 of 6 replicates; controls 3 of 18). For S63Y+G103K+F105D+S107I, the assay gave nd (0 of 6 replicates; controls 0 of 18). Variant T28S+G61V+R100Q+A101T+S107T gave 200 pM (3 of 6 replicates; controls 0 of 18).

Variant T28D+G61S+R100K+A101T+S107A showed 1.0 nM (5 of 6 replicates; controls 0 of 18). For T28D+S31N+D62C+G99N+T104W+D106N, the assay gave 240 nM (1 of 6 replicates; controls 0 of 18). With N30Q+T104L+S107M the result was nd (0 of 6 replicates; controls 0 of 18). With T28D+G61D the result was 2.2 nM (6 of 6 replicates; controls 0 of 18). With G33P+F59G+G61A+G99A+G103V the result was nd (0 of 6 replicates; controls 0 of 18). Variant S31E+G61C+G103V+S107Q showed nd (0 of 6 replicates; controls 0 of 18). Variant S63A+R100E+S107T gave 6.9 nM (6 of 6 replicates; controls 0 of 18).

Variant G61I+R100N+S107T showed 6.9 nM (4 of 6 replicates; controls 0 of 18). Variant S31E+T58A+G61T+A101T gave 680 pM (6 of 6 replicates; controls 1 of 18). Variant G61A+S63R+R100E gave 46 nM (3 of 6 replicates; controls 0 of 18). For S31Q+T58R+G61S+T104F, the assay gave nd (0 of 6 replicates; controls 0 of 18). Variant N30E+S53A+S63C+D106K gave nd (0 of 6 replicates; controls 0 of 18). With T28W+S31E+G61H+A101H the result was 33 nM (2 of 6 replicates; controls 0 of 18). Variant S31D+G61K+D106M showed 22 nM (1 of 6 replicates; controls 0 of 18).

With G26N+T28D+A101T the result was 29 nM (5 of 6 replicates; controls 0 of 18). For N30S+S107D, the assay gave 330 nM (1 of 6 replicates; controls 0 of 18). Variant T28E+S31M+A101T+S107T showed 6.9 nM (6 of 6 replicates; controls 0 of 18). With G61S+G103V+S107A the result was 130 nM (1 of 6 replicates; controls 0 of 18). Variant S63D+R100S+G103L gave 92 nM (1 of 6 replicates; controls 0 of 18).

The range of this assay differs from that of the first round, and the authors advise against merging the two. In the paper, a design with two or fewer of six values counts as a poor binder. As a blank, each scFv also met three strains without target: over all heavy chain designs, 1% of these pairings were detected, typically at 120 nM and seldom below 7.0 nM. Also given: how often the same scFv was detected with the empty control strains.

Data: MIT Lincoln Laboratory AlphaSeq set, Li et al. 2023, doi:10.1038/s41467-023-39022-2, as distributed in FLAb.